Patent publication US5583127A, “17-iminomethylalkenyl-5 β, 14 β-androstane and 17-iminoalkyl-5 β, 14 β-androstane derivatives active on the cardiovascular system, and pharmaceutical compositions containing same” (Sigma-Tau Industrie Farmaceutiche Riunite S.p.A., priority 1993, dated 1996)

Target: Na^+, K^+ -ATPase receptor (Homo sapiens, UniProt P05023)
Assay: displacement of the specific 3H-ouabain binding from the Na+,K+-ATPase receptor
Settings: displacement of specific 3H-ouabain binding

C[C@]12CC[C@H](O)C[C@H]1CC[C@@H]1[C@@H]2CC[C@]2(C)[C@@H](/C=C/C=N/O)CC[C@]12O
Binding ^3 H-Ouab. Displacement log IC50: 5.6
